Source: ChEMBL document CHEMBL1129573, “Structure-activity relationships in a series of substituted indolocarbazoles: topoisomerase I and protein kinase C inhibition and antitumoral and antimicrobial properties” (J Med Chem, 1996)

What was measured:
[1] = system: DNA topoisomerase II (Bos taurus); experiment: Inhibitory activity towards Topoisomerase 2 from calf thymus
[2] = system: DNA topoisomerase I (Bos taurus); experiment: Inhibitory activity towards Topoisomerase 1 from calf thymus.

Structure (SMILES)	MIC [1] [mg/L]	MIC [2] [mg/L]
NNC(=O)NN1C(=O)c2c(c3c4ccccc4[nH]c3c3[nH]c4ccccc4c23)C1=O	> 10	> 10
O=CNN1C(=O)c2c(c3c4cccc(Cl)c4[nH]c3c3[nH]c4c(Cl)cccc4c23)C1=O	> 10	> 10
NN1C(=O)c2c(c3c4ccccc4[nH]c3c3[nH]c4ccccc4c23)C1=O	> 10	10 (≈ 29.4 µM)

≈ marks a conversion by molar mass, not a printed value.
